Protein sequences, listed by entry. Tags and fused reporters are not part of them. Lines headed by an entry give the natural chain unless they say otherwise; changes in a name come on top.
UniProt Q13547, whole entry: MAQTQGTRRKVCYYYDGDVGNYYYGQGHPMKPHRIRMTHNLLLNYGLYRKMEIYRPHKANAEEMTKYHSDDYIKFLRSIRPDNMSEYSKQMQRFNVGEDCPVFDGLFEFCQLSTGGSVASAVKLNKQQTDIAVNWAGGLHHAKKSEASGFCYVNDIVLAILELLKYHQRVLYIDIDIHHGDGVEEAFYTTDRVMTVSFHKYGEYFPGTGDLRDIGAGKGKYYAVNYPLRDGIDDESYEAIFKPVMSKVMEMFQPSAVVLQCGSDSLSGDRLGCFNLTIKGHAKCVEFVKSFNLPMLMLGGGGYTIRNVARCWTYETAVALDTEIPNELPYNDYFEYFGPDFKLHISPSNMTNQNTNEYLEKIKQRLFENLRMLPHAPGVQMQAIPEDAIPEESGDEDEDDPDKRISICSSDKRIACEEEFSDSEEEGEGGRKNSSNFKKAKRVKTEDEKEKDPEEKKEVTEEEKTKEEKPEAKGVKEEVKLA
UniProt Q92769, whole entry: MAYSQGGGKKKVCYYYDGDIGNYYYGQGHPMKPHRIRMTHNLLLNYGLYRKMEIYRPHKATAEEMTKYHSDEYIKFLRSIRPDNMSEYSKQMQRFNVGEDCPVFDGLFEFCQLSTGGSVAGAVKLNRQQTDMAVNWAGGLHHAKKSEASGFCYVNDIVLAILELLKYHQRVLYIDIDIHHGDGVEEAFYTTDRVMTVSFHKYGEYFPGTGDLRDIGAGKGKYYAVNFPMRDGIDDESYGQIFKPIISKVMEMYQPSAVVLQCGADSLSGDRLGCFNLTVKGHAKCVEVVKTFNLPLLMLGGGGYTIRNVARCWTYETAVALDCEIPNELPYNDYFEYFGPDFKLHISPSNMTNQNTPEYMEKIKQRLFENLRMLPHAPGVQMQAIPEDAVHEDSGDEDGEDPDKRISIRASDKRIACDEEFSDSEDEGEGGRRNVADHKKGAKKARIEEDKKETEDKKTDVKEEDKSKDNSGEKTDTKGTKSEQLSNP
UniProt O15379: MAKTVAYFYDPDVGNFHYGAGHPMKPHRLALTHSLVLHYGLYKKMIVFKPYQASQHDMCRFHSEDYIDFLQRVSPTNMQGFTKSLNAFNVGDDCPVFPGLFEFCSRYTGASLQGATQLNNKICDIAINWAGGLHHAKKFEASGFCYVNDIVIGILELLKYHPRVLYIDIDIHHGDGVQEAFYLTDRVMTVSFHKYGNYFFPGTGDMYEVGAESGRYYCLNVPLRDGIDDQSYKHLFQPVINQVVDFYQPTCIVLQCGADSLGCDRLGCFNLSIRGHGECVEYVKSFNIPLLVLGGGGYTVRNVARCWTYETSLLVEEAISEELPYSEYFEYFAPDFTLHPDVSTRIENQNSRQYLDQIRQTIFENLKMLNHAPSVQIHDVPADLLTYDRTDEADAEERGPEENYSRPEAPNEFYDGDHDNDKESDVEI

According to patent US8614223B2, “Pyrimidine hydroxy amide compounds as protein deacetylase inhibitors and methods of use thereof” (Acetylon Pharmaceuticals, Inc., priority 2010, dated 2013):

How the values were obtained:
HDAC1 = HDAC1 (Homo sapiens (Human), UniProt Q13547); assay: HDAC enzyme assay, HDAC1; settings: ratio HDAC1/HDAC6
HDAC2 = HDAC2 (Homo sapiens (Human), UniProt Q92769); assay: HDAC enzyme assay, HDAC2; settings: for HDAC2 fold over HDAC6 IC50 (selectivity for HDAC6): ratio HDAC2/HDAC6
HDAC3 = HDAC3 (Homo sapiens (Human), UniProt O15379); assay: HDAC enzyme assay, HDAC3; settings: ratio HDAC3/HDAC6

| Structure (SMILES) | HDAC1 fold over HDAC6 IC50 (selectivity for HDAC6) (HDAC1) | HDAC2 fold over HDAC6 IC50 (selectivity for HDAC6) (HDAC2) | HDAC3 fold over HDAC6 IC50 (selectivity for HDAC6) (HDAC3) | IC50 (HDAC2; read-out: HDAC2 IC50) [nM] |
| --- | --- | --- | --- | --- |
| O=C(NO)c1cnc(Nc2ccc(Cl)c(Cl)c2)nc1 [Compound 2] | (53.1x) | (50x) | (60.4x) | – |
| O=C(NO)c1cnc(NC2(c3cccc(Cl)c3)CC2)nc1 [Compound 94] | – | – | – | 32 |
| O=C(NO)c1cnc(NC2(c3cccs3)CC2)nc1 [Compound 98] | (39.9x) | (64.8x) | (115.2x) | – |
